Measured values from patent US11166981B2, “Methods and compositions for treating chlorine-gas induced lung injury” (dated 2021).

Assays:
[1] = in vivo; cited from earlier work
[2] = tested on: human glial neuroinflammation; conditions: LPS-mediated, in vitro; cited from earlier work
[3] = tested on: heart ischemia/reperfusion injury; conditions: rat; cited from earlier work
[4] = tested on: paraquat model of acute lung injury; conditions: 1 g/kg, sc; cited from earlier work
[5] = cited from earlier work
[6] = tested on: coronary artery calcification; conditions: hemodialysis subjects; cited from earlier work
kidney injury = conditions: rat; cited from earlier work
[7] = tested on: global cerebral ischemia/reperfusion; conditions: mouse; cited from earlier work
cyanide toxicity = conditions: animal models of cyanide toxicity, cited from earlier work
[8] = tested on: volume overload heart failure; conditions: mouse; cited from earlier work
biliary obstruction = conditions: rat biliary obstruction; cited from earlier work
acute lung injury = conditions: 0.5-2 g/kg, ip or iv, even when given post insult; cited from earlier work
[9] = tested on: Human bronchial epithelial cell line (16HBE); assay: HOCl-induced injury of human bronchial epithelial cells, LDH release
[10] = tested on: cisplatin-induced ototoxicity; conditions: guinea pig, even when given post insult; cited from earlier work
[11] = cited from earlier work; remark: listed apart in the source
chlorine gas exposure = conditions: cited from earlier work

For O=S(O)(O)=S, the adverse effects reported [1] is listed as “hypotension, nausea and vomiting”, the “effect on glial neuroinflammation” value [2] is listed as “attenuate LPS-mediated human glial neuroinflammation” and the “effect in heart ischemia/reperfusion injury” value [3] is listed as “protective”. The effect on survival [4] was “improved mouse survival”, the basal serum levels ([5]; endogenous, humans) was 5.5 ± 1.8 µM and the serum half-life ([5]; human, high i.v. dose) was “around 3 hours”. The “effect on progression of coronary artery calcification” value [6] was “delayed the progression”, the “effect in kidney injury models” value (kidney injury) was “protective” and the “effect in global cerebral ischemia/reperfusion” value [7] was “neuroprotective”. For the same compound, the improvements in survival (cyanide toxicity; doses 150-1000 mg/kg) was 5-70%, the effective doses (cyanide toxicity) was 150 to 1000 mg/kg and the “effect in volume overload heart failure” value [8] was “cardioprotective”. For the same compound, the “effect on liver mitochondrial function” value (biliary obstruction) was “improved liver mitochondrial function”, the effect on survival (biliary obstruction) was “improved survival” and the “effect on lung inflammation and injury” value (acute lung injury) was “decreased lung inflammation and injury”. The “protection of HBE cells against HOCl-induced injury” value ([9]; 200 μM HOCl 30 minutes, increasing concentrations, LDH release at 24 hours (FIG. 3)) was “dose-dependent thiosulfate protection”, the “concentration of sodium thiosulfate giving improved survival against HOCl-mediated injury” value ([9]; 16HBE, 200 μM HOCl in PBS 30 minutes, then thiosulfate in DMEM+10% FCS, LDH release 24 hours after) was greater than 10 µM and the “effect on cisplatin-induced ototoxicity” value [10] was “protective”. The “reported LD50” value ([11]; in animals) was 3000 to 4000 mg/kg and the “reported LD50 dose” value ([11]; iv route) was 4000 mg/kg.
In the case of O=NO, the “effect on mortality to chlorine gas exposure” value (chlorine gas exposure; mouse model) is given as “effective in decreasing mortality” and the “effect on 24-hour survival” value (chlorine gas exposure; single bolus im dose, as late as 60 minutes post exposure) is given as “improve 24-hour survival”.
